Earlier results in patent publication US20090062206A1, “Urodilatin Cancer Treatment” (UNIVERSITY OF SOUTH FLORIDA, priority 2006, published 2009).

Details: human, in vivo; cited from earlier work

For Urodilatin, the side effect hypotension is listed as “observed”.
